The record followed here is PubChem BioAssay (EPA / NIEHS).

This is a selection; strong and weak results do not stand in their true shares. Activity calls are given as the source filed them. The calls were made as follows: active = hit-call score of the fitted dose curve at least 0.9, where 1 is the maximum; inactive = score below 0.9.

Read-out in experiment [1]: Thrombomodulin, THBD (gene 7056)
The experiment can be described thus: BSK_CASM3C_Thrombomodulin: BioMAP Diversity Plus: CASM3C Assay for Thrombomodulin Biomarker Activity (AID 2283051).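 Also: thrombomodulin protein level measured by ELISA 24 h after dosing.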 To be noted: actives raise or lower the signal; primary human coronary artery smooth muscle cells.

Read-out in experiment [2]: Tissue Factor, F3 (gene 2152)
The experiment in a line: BSK_CASM3C_TissueFactor: BioMAP Diversity Plus: CASM3C Assay for Tissue Factor Biomarker Activity (AID 2283052).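 Also: cell surface tissue factor protein level read by ELISA.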 To be noted: actives raise or lower the signal; primary human coronary artery smooth muscle cells.

Read-out in experiment [3]: Interferon-gamma inducible Protein 10 (IP10), CXCL10 (gene 3627)
The experiment can be described thus: BSK_hDFCGF_IP10: BioMAP Diversity Plus: hDFCGF Assay for Interferon-gamma inducible Protein 10 (IP10) Biomarker Activity (AID 2283053). To be noted: actives raise or lower the signal; primary human foreskin fibroblasts. The method, boiled down:
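Human foreskin fibroblast primary cells (hDFCGF system) were dosed with chemical and assayed at 24 h; IP-10 measured by ELISA. Activity fitted bidirectionally relative to DMSO negative control as baseline.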

Read-out in experiment [4]: Urokinase-type plasminogen activator receptor (uPAR), PLAUR (gene 5329)
The experiment in a line: BSK_CASM3C_uPAR: BioMAP Diversity Plus: CASM3C Assay for Urokinase-type plasminogen activator receptor (uPAR) Biomarker Activity (AID 2283054). The note with it: actives raise or lower the signal; primary human coronary artery smooth muscle cells.

Read-out in experiment [5]: Vascular cell adhesion molecule 1 (VCAM1), VCAM1 (gene 7412)
The experiment in a line: BSK_CASM3C_VCAM1: BioMAP Diversity Plus: CASM3C Assay for Vascular cell adhesion molecule 1 (VCAM1) Biomarker Activity (AID 2283055). The note with it: actives raise or lower the signal; primary human coronary artery smooth muscle cells.

Read-out in experiment [6]: Collagen III, COL3A1 (gene 1281)
The experiment can be described thus: BSK_hDFCGF_CollagenIII: BioMAP Diversity Plus: hDFCGF Assay for Collagen III Biomarker Activity (AID 2283056). To be noted: actives raise or lower the signal; primary human foreskin fibroblasts. The method, boiled down: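 ELISA readout of Collagen III in human dermal (foreskin) fibroblasts, taken 24 h post-treatment. Gain or loss relative to DMSO vehicle fitted in both directions.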

Read-out in experiment [7]: Epidermal growth factor receptor (EGFR), EGFR (gene 1956)
The experiment in a line: BSK_hDFCGF_EGFR: BioMAP Diversity Plus: hDFCGF Assay for Epidermal growth factor receptor (EGFR) Biomarker Activity (AID 2283057). The note with it: actives raise or lower the signal; primary human foreskin fibroblasts. The method, boiled down: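 Primary human foreskin fibroblasts were exposed to compound for 24 h, after which cell-surface EGFR was quantified by ELISA. Activity was fitted bidirectionally against the DMSO negative control as baseline.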

Read-out in experiment [8]: Interleukin-8 (IL8), CXCL8 (gene 3576)
The experiment in a line: BSK_hDFCGF_IL8: BioMAP Diversity Plus: hDFCGF Assay for Interleukin-8 (IL8) Biomarker Activity (AID 2283058). The note with it: actives raise or lower the signal; primary human foreskin fibroblasts. As for the experimental part:
(§1) BSK_hDFCGF is a cell-based, multiplexed-readout assay that uses foreskin fibroblast, a human skin primary cell, with measurements taken at 24 hours after chemical dosing in a 96-well plate.BSK_hDFCGF_IL8 is an assay component measured in the BSK_hDFCGF assay. It measures IL-8 antibody related to regulation of gene expression using ELISA technology.Data from the assay component BSK_hDFCGF_IL8 was analyzed into 1 assay endpoint. This assay endpoint, BSK_hDFCGF_IL8, was analyzed with bidirectional fitting relative to DMSO as the negative control and baseline of activity. Using a type of binding reporter, gain or loss-of-signal activity can be used to understand changes in the signaling as they relate to the gene CXCL8. Furthermore, this assay endpoint can be referred to as a primary readout, because this assay has produced multiple assay endpoints where this one serves a signaling function. To generalize the intended target to other relatable targets, this assay endpoint is annotated to the cytokine intended target family, where the subfamily is interleukins.
(§2) The levels of cell surface (or secreted, indicated by the prefix "s") biomarker endpoints were measured by ELISA. Overt cytotoxicity to cells in confluent adherent cultures (all systems other than the BT system) was assessed by measuring total protein levels using sulforhodamine B (SRB) staining in parallel cultures at the time of biomarker measurements, indicated as SRB endpoints. For proliferation assays for adherent cell types, individual cell types are cultured at sub-confluence and relative cell numbers quantified by SRB staining at time points optimized for each system (48 h: 3C and CASM3C systems; 72 h: BT and HDF3CGF systems; 96 h: SAg system). SRB was performed by staining cells with 0.1% SRB after fixation with 10% TCA and reading wells at 560 nm.Viability and proliferation of PBMC (T cells) was quantified by Alamar Blue reduction for the SAg and BT systems. For PBMC viability (referred to as PBMC Cytotoxicity within the assay endpoint names), cells were plated (75,000/well in a 96-well plate) and then chemical samples added for 1 h before addition of activators, SEB and TSST-1 (20 ng/mL final concentration each). Cells were incubated for 90 h. Then, Alamar Blue (20 uL/well) (Invitrogen, Cat DAL1100) was added for 6 h, and the plates were read with a fluorescence microplate reader at 546/580 nm (excitation/emission). For PBMC proliferation, cells were plated and activated as above but incubated for only 16 h prior to addition of Alamar Blue. Plates were read after 6 h.

A short description of experiment [9]: BSK_hDFCGF_Proliferation: Cell Proliferation Assessment in the BioMAP Diversity Plus: hDFCGF Assay (AID 2283059).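 Also: curves fitted for both rise and fall of signal versus DMSO baseline.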 To be noted: primary human foreskin fibroblasts. The method, boiled down:
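Sub-confluent human foreskin fibroblast cultures receive test chemical […]. Relative cell number is quantified by sulforhodamine B staining (0.1%, after 10% TCA fixation) at 560 nm, with bidirectional fitting referenced to DMSO.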

Read-out in experiment [10]: Macrophage colony-stimulating factor (MCSF), CSF1 (gene 1435)
The experiment can be described thus: BSK_hDFCGF_MCSF: BioMAP Diversity Plus: hDFCGF Assay for Macrophage colony-stimulating factor (MCSF) Biomarker Activity (AID 2283060). To be noted: actives raise or lower the signal; primary human foreskin fibroblasts. The method, then: as §1, with “plate.BSK_hDFCGF_MCSF” for “plate.BSK_hDFCGF_IL8”, “M-CSF” for “IL-8”, “BSK_hDFCGF_MCSF” for “BSK_hDFCGF_IL8”, “BSK_hDFCGF_MCSF,” for “BSK_hDFCGF_IL8,”, “CSF1.” for “CXCL8.”, “colony stimulating factor.” for “interleukins.”
as §2

`Cc1c([N+](=O)[O-])cccc1[N+](=O)[O-]`: the outcome in experiment [1], in experiment [2], in [3], in [4], in experiment [5] and in experiment [6] was inactive. Moreover, the result in experiment [7], in experiment [8], in experiment [9] and in experiment [10] was inactive.
As for `O=[N+]([O-])c1cccc([N+](=O)[O-])c1`, the result in [1], in experiment [2], in experiment [3], in experiment [4], in experiment [5] and in experiment [6] was inactive. Also, the result in experiment [7], in experiment [8], in experiment [9] and in [10] was inactive.
As to `Cc1ccc([N+](=O)[O-])c([N+](=O)[O-])c1`, the outcome in [1], in experiment [2], in experiment [3], in experiment [4], in experiment [6] and in experiment [7] was inactive. The outcome in experiment [8] was inactive. Besides, the AC50 is active: 5.02 µM in experiment [5], active: 15.6 µM in experiment [9] and active: 6.46 µM in experiment [10].
In the case of `CC(C)OP(C)(=O)OC(C)C`, the outcome in [1], in [2], in experiment [3], in experiment [4], in experiment [5] and in [6] was inactive. For the same compound, the outcome in experiment [7], in experiment [8] and in experiment [10] was inactive. The AC50 in [9] is active: 20 µM.
For `Cc1cccc([N+](=O)[O-])c1[N+](=O)[O-]`, the result in experiment [1], in [2], in experiment [4], in [5], in [6] and in [7] was inactive. Further, the result in experiment [8] was inactive. Also, the AC50 in experiment [3] is active: 14.3 µM; in experiment [9] it was active: 14.3 µM; in experiment [10], active: 11.1 µM.
In the case of `Cc1ccc([N+](=O)[O-])cc1[N+](=O)[O-]`, the outcome in experiment [1], in experiment [2], in [3], in experiment [4], in experiment [5] and in experiment [6] was inactive. The result in [7], in [8], in experiment [9] and in experiment [10] was inactive.
